Measured values published in ChEMBL document CHEMBL1141879, “Alkylamino derivatives of 4-aminomethylpyridine as inhibitors of copper-containing amine oxidases” (J Med Chem, 2005).

The chains behind the UniProt entries cited, without tags or fusion partners.
UniProt P19643, whole entry: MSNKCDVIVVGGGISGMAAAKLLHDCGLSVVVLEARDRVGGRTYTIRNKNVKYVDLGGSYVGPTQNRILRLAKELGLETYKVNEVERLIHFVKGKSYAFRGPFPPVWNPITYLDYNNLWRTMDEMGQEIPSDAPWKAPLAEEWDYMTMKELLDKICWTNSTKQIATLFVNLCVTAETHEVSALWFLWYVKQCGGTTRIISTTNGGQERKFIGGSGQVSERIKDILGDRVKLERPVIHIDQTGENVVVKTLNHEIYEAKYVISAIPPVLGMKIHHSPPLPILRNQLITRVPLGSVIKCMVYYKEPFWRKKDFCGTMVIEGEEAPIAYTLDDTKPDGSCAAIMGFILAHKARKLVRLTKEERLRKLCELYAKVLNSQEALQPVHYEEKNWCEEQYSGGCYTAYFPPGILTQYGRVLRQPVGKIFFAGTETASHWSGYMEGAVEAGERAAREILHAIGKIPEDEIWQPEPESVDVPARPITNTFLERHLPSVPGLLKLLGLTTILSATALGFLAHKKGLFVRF

Target: Amine oxidase [flavin-containing] B (Rattus norvegicus, UniProt P19643)
Experiment: Inhibitory concentration for rat liver Monoamine oxidase B using beta-phenylethylamine

**Q.** For `Cl.Cl.NCc1c(OCCCCO)cncc1OCCCCO`, which IC50 is on record?
**A.** > 1 mM
